Experimental data: patent publication US8017398B2, “Method for assaying protein-protein interaction” (Life Technologies Corporation, priority 2003, dated 2011)

Target: T1, human IGF-1R (Homo sapiens, UniProt P08069)
T1 construct: expressed in transfected cells; host or cells: clone HTL5B8.1 (HEK-293T line with a tTA-dependent luciferase reporter)
Assay: IGF1R-tTA + SHC1-TEV luciferase reporter assay, HTL5B8.1 cells
Format: cell-based
Details: 1 μM; 24 hours

For “human Insulin-like Growth Factor 1: specific receptor agonist for IGF1R”, the “increase of luciferase reporter gene activity” value was 90 fold.
